Literature values in PubChem BioAssay AID1811 (Shanghai Institute of Organic Chemistry, 2009).
The list shows a part of the results. Active and inactive are the calls of the source. Where no limit is named, active and inactive come without a cut-off here.

Tested on: serine/threonine-protein kinase 6
Test: PubChem AID 1811
Conditions: PDB complex binding affinities from literature

SMILES	outcome
CN1CCN(c2ccc(C(=O)Nc3n[nH]c4c3CN(C(=O)Cc3cccs3)C4)cc2)CC1	active
CO[C@@H](C(=O)N1Cc2[nH]nc(NC(=O)c3ccc(N4CCN(C)CC4)cc3)c2C1)c1ccccc1	active
